Our source for the fold IR-induced increase in PLA associations (HBEC) values is paper PMC3475795.

This experiment concerns the target V5 epitope-tagged wild-type epidermal growth factor receptor (EGFR). Put plainly: proximity ligation.

Substance “DNA-PKcs of human cell lines (a stretch of the chain, chain not printed) (enzyme)” returned a fold IR-induced increase in PLA associations (HBEC) of 200 fold.
